What was measured:
NIH-OVCAR-3 cells = assay: Flow cytometric analysis of Annexin V positive cells (% apoptosis); type: cell-based, human; conditions: NIH-OVCAR-3, IL-2 250 U/mL with NO-Cbl, 48 hrs
Protocol: A flow cytometric analysis of Annexin V positive cells was performed to assess the % apoptosis (programmed cell death) of NIH-OVCAR-3 cells treated with NO-Cbl, alone and in combination with IFN-β. This is illustrated in FIG. 4 The ID25 was used for both NO-Cbl (10 uM) and IFN-β (20 U/mL) for 48 hrs.

[1] = tested on: NIH-OVCAR-3 ovarian carcinoma; assay: SRB anti-proliferative cell survival assay, NIH-OVCAR-3; type: cell-based, human; conditions: concentration used in the Annexin V assay for 48 hrs
Protocol: FIG. 1 illustrates NIH-OVCAR-3 ovarian carcinoma evaluated in accordance with the present invention after 72-hrs growth. […] Single agent and combination drug effects were assessed to determine whether IFN-β enhanced NO-Cbl activity. […] These matters are shown in the median effect analysis shown in FIG. 2 (similar to isobologram analysis) indicated synergy (a combination index <1) between NO-Cbl and IFN-β at all 3 doses tested.
Cells (2×10^3) were seeded in 96-well plates. Data points represent mean of eight replicates. (n=8). A control plate was fixed 4 hr after seeding (to allow cells to attach) to determine the initial seeding density (Aini). This was defined as 0% growth. To the wells of the seeded experimental plate, IFN-β was added and incubation continued for 3-5 days. Untreated cell controls were included. Growth obtained with this control was defined as 100% (Afin). To determine cell number, cells were fixed with 10% trichloroacetic acid at 4° C. for 1 h. They were stained with 0.4% sulforhodamine B prepared in 1% acetic acid at 25° C. for 1 h (27). The wells were washed with 1% acetic acid. Bound dye was eluted with 100 μl of 10 mM Tris-HCl, ph 10.5 and quantitated in a microplate reader at 570 nm. Growth in IFN-β-treated wells (experimental=exp) was expressed as a percentage of untreated control growth (mean±SEM).
%Control growth=100%×(Aexp−Aini)/(Afin−Aini) […]

TCII receptor = assay: Western blot of TCII receptor in NIH-OVCAR-3 cell extracts; type: cell-based, human; conditions: NIH-OVCAR-3 cells, IFN β 200 u/ml at 4 and 16 hrs
Protocol: To assess the effect of IFNβ on TCII-R expression, a western blot analysis was performed on extracts from NIH-OVCAR-3 cells (ovarian carcinoma) as shown in FIG. 3. Lane 1 is untreated. Lanes 2 and 3 are IFN β treated (200 u/ml) at 4 and 16 hrs respectively. Lanes 4 and 5 are liver and kidney extracts respectively, and serve as a positive control, since TCII-R is abundant in these tissues. […] The co-delivery of IFN-β and nitrosylcobalamin appears to result in synergistic destruction of tumor cells as a result of increased TCII receptor expression or activity.
Cells in culture were treated with vehicle (untreated) or with IFN-β (500 U/ml) for 4 and 16 hrs, washed twice in PBS, harvested by scraping, and lysed in buffer containing 100 mM saline-TRIS. Total cell extracts were homogenized prior to loading. Protein amounts in clarified cell extracts were determined using Bio-Rad protein assay reagent. Equivalent amounts of protein (100 μg) were loaded on 10% polyacrylamide SDS separating gels and electrophoresis was performed using glycine-SDS buffer. Following electrophoresis, gels were equilibrated in transfer buffer 30 min at 25° C., and proteins transferred to nitrocellulose membrane.
All steps were performed at 25° C. […] Excess detection reagent was drained and the membrane was placed protein side down on plastic wrap and exposed to film for empirically determined lengths of time.

TCII-R [2] = assay: Immunohistochemical analysis of TCII-R in NIH-OVCAR-3 tumors grown in nude mice; type: in vivo; conditions: NIH-OVCAR-3 tumors in nude mice, human IFN-β 10^5 units daily for three days, versus PBS control
Source text: The control group received PBS and the treated group received human IFN-β 10^5 units daily for three days. Tumors were harvested, paraffin embedded, and sections were stained with rabbit polyclonal anti-TCII-R antibody, (provided by Dr. Seetharam's lab, Medical College of Wisconsin). FIG. 5 depicts these treatments. The left panel is an untreated tumor whereas the right panel is a tumor from a mouse that received IFN-β. […] The increased expression of the TCII receptor allows for increased uptake of NO-Cbl, consistent with the synergy observed in the SRB and Annexin V assays upon NO-Cbl co-treatment with IFN-β.
(§1) In-vivo IFN-β treatment of nude mice inoculated with tumors (e.g. WM9—human melanoma or NIH-OVCAR-3—ovarian carcinoma) and Immunohistochemical analysis: Nude mice (n=2 each group), were inoculated with tumors (e.g. WM9—human melanoma or NIH-OVCAR-3—ovarian carcinoma), subcutaneously (s.c.), one tumor on each flank. The tumors were grown until 3-5 mm in diameter. Human IFN-β (10^5 units) was administered s.c. for three days to the treatment animals. On day four, animals were sacrificed and tumors were fixed in formalin and paraffin embedded. The sections were analyzed using standard immunohistochemical techniques. Anti-TCII-R was used as the primary antibody.

TCII-R [3] = assay: Immunohistochemical analysis of TCII-R in WM9 tumors grown in nude mice; type: in vivo; conditions: human IFN-β 10^5 units daily for three days, versus PBS control
Source text: The control group received PBS and the treated group received human IFN-β 10^5 units daily for three days. Tumors were harvested, paraffin embedded, and sections were stained with rabbit polyclonal anti-TCII-R antibody, (provided by Dr. Seetharam's lab, Medical College of Wisconsin). FIG. 8 depicts these treatments. The upper two panels are untreated tumors whereas the lower panels are tumors from mice that received IFN-β.
as §1

Molecule | effect on NO-Cbl induced apoptosis (Annexin V positive cells) (NIH-OVCAR-3 cells) | ID25 [1] [U/mL] | expression of the TCII receptor (monomer 62 kDa, dimer 124 kDa) (TCII receptor) | expression of the TCII receptor (monomer 62 kDa, dimer 124 kDa) (TCII receptor; listed as IFN β) | expression of TCII-R (anti-TCII-R staining of tumor sections) (TCII-R [2]) | expression of TCII-R (anti-TCII-R staining of tumor sections) (TCII-R [3])
interleukin-2 [IL-2] | protective against the effects of NO-Cbl | – | – | – | – | –
interferon-β (protein, UniProt P01574 22-187, looked up, cytokine; human IFN-β) Interferon beta: MSYNLLGFLQRSSNFQCQKLLWQLNGRLEYCLKDRMNFDIPEEIKQLQQFQKEDAALTIYEMLQNIFAIFRQDSSSTGWNETIVENLLANVYHQINHLKTVLEEKLEKEDFTRGKLMSSLHLKRYYGRILHYLKAKEYSHCAWTIVRVEILRNFYFINRLTGYLRN | – | 20 | increased expression of the TCII-R | increase in the expression of the TCII receptor | increased expression of TCII-R | increased expression of TCII-R

— patent US6752986B2, “Composition and methods for affecting metallocorrinoid uptake” (The Cleveland Clinic Foundation, priority 2001, dated 2004)
